Biological target: CRABP
Settings: Table 2

CC1=C(/C=C/C(C)=C\C=C\C(C)=C\C(=O)O)C(C)(C)CCC1
Kd: > 100 nM
